Columns and labels:
[1] = system: BmMDH2S101G; format: biochemical, Bacillus methanolicus MGA3
Protocol: (§1) Data are shown as means ± SDs (n = 3). Apparent KM values for NAD^+ were determined in the presence of 10 nM ACT (Fig. S6). […] Data are presented as means ± SDs (n = 3). […] The row labels are given as the substance labels. / Panel D: no substance label is printed with the KD and thermodynamic values.

Sequences of proteins named here, by UniProt entry; tags and fusion partners are left off.
UniProt I3E949, entry or part of it: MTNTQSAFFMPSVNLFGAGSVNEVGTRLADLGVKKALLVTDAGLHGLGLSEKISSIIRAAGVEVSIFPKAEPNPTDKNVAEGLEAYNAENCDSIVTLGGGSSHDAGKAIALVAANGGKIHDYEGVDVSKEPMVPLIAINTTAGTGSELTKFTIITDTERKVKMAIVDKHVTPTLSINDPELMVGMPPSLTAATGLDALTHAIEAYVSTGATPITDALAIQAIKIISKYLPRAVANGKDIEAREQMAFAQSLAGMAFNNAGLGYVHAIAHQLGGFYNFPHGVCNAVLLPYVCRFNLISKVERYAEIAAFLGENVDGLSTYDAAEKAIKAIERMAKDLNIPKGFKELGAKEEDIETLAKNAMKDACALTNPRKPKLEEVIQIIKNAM

[2] = biological target: T1, BmMDH1 (Bacillus methanolicus, UniProt Q6TV41); assay: Inhibition assay of MDHs by ADPR (residual activity, ethanol as substrate); format: biochemical, Bacillus methanolicus MGA3; conditions: 3 mM NAD+, 40 mM ethanol, Tris-HCl pH 8.0, 25 °C
T1 sequence (Q6TV41 1-382): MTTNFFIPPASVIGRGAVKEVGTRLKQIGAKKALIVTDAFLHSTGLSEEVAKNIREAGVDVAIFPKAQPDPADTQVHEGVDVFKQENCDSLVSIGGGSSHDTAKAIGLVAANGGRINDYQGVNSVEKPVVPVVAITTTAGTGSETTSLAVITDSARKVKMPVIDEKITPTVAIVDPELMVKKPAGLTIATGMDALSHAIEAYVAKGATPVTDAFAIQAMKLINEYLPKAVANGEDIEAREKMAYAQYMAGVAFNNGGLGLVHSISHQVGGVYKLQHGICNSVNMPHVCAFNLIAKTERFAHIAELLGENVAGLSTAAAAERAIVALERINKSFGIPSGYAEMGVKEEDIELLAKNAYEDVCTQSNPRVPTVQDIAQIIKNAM
Protocol: (§2) Figure 4 Characterization of ADPR inhibition of and binding affinity for MDHs.A, inhibition of MDHs by ADPR in the presence of 3 mM NAD^+. Data are shown as means ± SDs (n = 3). Apparent KM values for NAD^+ were determined in the presence of 10 nM ACT (Fig. S6). B-C, inhibition kinetics of ADPR on ethanol dehydrogenation (B) and formaldehyde reduction (C) catalyzed by BmMDH2. Data are presented as means ± SDs (n = 3). D, binding affinity of ADPR to BmMDH2 determined by isothermal titration calorimetry (ITC). […] The only compounds the table names are ADPR and NAD+, in the column heads. The row labels are given as the substance labels. / Panel D: no substance label is printed with the KD and thermodynamic values.
(§3) Inhibition constants (Ki) were determined by measuring the residual activities of MDHs in the presence of different dilutions of ADPR (2-fold dilutions, ranging from 0 μM to 2000 μM final concentration) using ethanol as substrate. […] The rate of absorbance change is proportional to enzyme activity. The IC50 values were determined by fitting sigmoidal curves to the data using the following four-parameter logistic equation: Y=100/1+10^(LogIC50−X)p Wherein Y is the residual activity (%) of MDHs, X is the logarithm of ADPR concentration, IC50 is the concentration of inhibitor that produces 50% inhibition, and p is the Hill coefficient. The Ki values were calculated based on the IC50s using the Cheng-Prusoff equation: Ki=IC50/1+S0/KM Wherein [S]0 is the initial concentration of NAD^+ used for inhibition assay, and KM is the Michaelis-Menten constant of the MDHs for NAD^+ determined as described below.

[3] = biological target: T2, BmMDH2 (Bacillus methanolicus, UniProt I3E949); assay: as above; format: biochemical, Bacillus methanolicus MGA3
Protocol: as §2, §3

[4] = system: CnMDH2 CT4-1; format: biochemical, Cupriavidus necator N-1
Protocol: as §1

[5] = biological target: T2, BmMDH2; assay: Inhibition kinetics of ADPR on formaldehyde reduction (NADH fluorescence); format: biochemical, Bacillus methanolicus MGA3; conditions: read-out: Ki derived from inhibition kinetics, NADH varied
Protocol: as §1

[6] = biological target: T2, BmMDH2; assay: Isothermal titration calorimetry (ITC) of ADPR binding; design: species or system Bacillus methanolicus MGA3; conditions: 25 °C, Tris-HCl pH 8.0, 0.5 mM MnCl2
Protocol: The ITC assay was performed on a Malvern Microcal PEAQ-ITC instrument (Malvern Panalytical), at 25 °C with stirring of 750 rpm. The sample cell was filled with 200 μl of protein solution (30 μM purified BmMDH2 in 200 mM Tris-HCl, pH 8.0, 0.5 mM MnCl2). The 300 μM ADPR solution containing 200 mM Tris-HCl (pH 8.0) and 0.5 mM MnCl2 was titrated at a rate of 0.5 μl/s at 150 s time intervals (first injection of 0.4 μl followed by 19 injections of 2 μl). The titration data were analyzed using MicroCal PEAQ-ITC analysis software (version 1.41, provided by the supplier) and fitted with the one-site model. […] Subsequently, the buffer was exchanged to Tris-HCl (200 mM, pH 8.0) using the Amicon Ultra-15 spin filter, and the binding of ADPR to BmMDH2 free of metal ion was analyzed using ITC as described above.
Fig. S10 ITC analysis of ADPR binding to BmMDH2 (a, b) and EDTA-treated BmMDH2 (c). a and b, ITC measurements were performed at 25°C using 200 μL of 30 µM BmMDH2 in 200 mM Tris-HCl (pH 8.0) containing 0.5 mM MnCl2. […] Data were analyzed using MicroCal PEAQ-ITC analysis software and fitted with the one-site model. c, BmMDH2 was treated with 20 mM EDTA in 100 mM glycine-NaOH buffer (pH 9.5) for 2 hours. Subsequently, the buffer was exchanged to 200 mM Tris-HCl (pH 8.0), and the binding of ADPR to metal-free BmMDH2 was analyzed as described in (a) and (b).

Question: With adenosine diphosphate ribose [ADPR] as the substance, how does the “IC50 of BmMDH2S101G relative to BmMDH2” value [1] read?
Answer: The value was “over two orders of magnitude greater”.

Question: What about the IC50 [2] of the same substance?
Answer: The IC50 was 4800 ± 1000 nM.

Question: What about the IC50 ([3]; 3 mM NAD+, 40 mM ethanol, Tris-HCl pH 8.0, 25 °C) of the same substance?
Answer: Its IC50 is 2400 ± 700 nM.

Question: What about the Ki ([3]; calculated from IC50 by Cheng-Prusoff equation) of the same substance?
Answer: Its Ki is 460 ± 150 nM.

Question: What about the “IC50 of CnMDH2 CT4-1 relative to BmMDH2” value [4] of the same substance?
Answer: The value was “more than fivefold higher”.

Question: And the “Ki of ADPR for CnMDH2 CT4-1 relative to BmMDH2” value [4]?
Answer: The value was 4.8 fold.

Question: And the Ki [5]?
Answer: The Ki was 92 nM.

Question: What about the Kd [6] of the same substance?
Answer: The Kd was 303 nM.

— publication PMC12926040, “ADP-ribose is a competitive inhibitor of methanol dehydrogenases from Bacillus methanolicus” (The Journal of Biological Chemistry, 2025)
